Drawing on paper PMC7723054, this text covers binding signal for eleven molecules.

The chains are these.
T1: LIN28A (human?, UniProt Q9H9Z2 1-209)
T1 sequence: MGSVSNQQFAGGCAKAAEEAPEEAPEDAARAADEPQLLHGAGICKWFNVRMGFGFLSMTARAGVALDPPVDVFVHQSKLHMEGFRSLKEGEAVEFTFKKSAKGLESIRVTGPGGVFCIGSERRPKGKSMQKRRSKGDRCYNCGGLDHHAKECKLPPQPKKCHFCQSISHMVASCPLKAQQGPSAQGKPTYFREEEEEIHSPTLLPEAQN

T2: CIRBP (Homo sapiens, UniProt Q14011 1-172)
T2 sequence: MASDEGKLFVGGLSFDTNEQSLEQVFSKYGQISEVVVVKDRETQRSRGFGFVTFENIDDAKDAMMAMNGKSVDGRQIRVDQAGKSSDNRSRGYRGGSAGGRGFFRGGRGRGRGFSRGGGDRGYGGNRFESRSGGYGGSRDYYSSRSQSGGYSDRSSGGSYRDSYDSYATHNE

T3: DHX36 (Homo sapiens, UniProt Q9H2U1 1-1008)
T3 sequence: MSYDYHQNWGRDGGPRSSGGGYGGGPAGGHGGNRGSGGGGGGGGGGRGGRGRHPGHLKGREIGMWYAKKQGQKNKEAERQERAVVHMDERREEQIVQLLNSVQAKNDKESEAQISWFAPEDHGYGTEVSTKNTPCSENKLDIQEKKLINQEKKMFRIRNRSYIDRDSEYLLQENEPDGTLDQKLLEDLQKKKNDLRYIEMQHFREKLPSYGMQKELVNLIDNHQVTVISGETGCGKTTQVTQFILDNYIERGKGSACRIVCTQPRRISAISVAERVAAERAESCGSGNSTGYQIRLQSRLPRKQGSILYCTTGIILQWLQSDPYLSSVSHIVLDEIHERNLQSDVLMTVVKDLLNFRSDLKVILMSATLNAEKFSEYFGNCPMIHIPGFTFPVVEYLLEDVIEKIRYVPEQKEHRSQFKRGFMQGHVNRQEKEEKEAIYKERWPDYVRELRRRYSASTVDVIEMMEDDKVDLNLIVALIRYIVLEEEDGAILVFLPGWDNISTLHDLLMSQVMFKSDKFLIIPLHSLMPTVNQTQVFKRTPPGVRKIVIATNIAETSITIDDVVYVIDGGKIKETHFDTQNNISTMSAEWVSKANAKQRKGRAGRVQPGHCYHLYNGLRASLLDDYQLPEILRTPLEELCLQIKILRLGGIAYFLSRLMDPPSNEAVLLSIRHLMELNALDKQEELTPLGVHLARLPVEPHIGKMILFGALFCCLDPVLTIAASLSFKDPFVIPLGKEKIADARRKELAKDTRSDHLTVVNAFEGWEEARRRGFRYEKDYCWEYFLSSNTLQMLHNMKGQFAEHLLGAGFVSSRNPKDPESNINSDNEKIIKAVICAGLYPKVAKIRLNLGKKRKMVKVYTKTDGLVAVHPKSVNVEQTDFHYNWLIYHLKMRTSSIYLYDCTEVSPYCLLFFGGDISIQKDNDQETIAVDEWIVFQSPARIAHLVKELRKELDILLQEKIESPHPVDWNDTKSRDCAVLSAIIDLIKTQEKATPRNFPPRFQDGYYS

B1: hsa-mir-3661 (structured_RNA)
RNA: GGGAAUACCGUGCAGGUCGUUCGACUUCGGUGUACGAAGUUUCAGCGCUGCUUGCACUCGUUCAGCGCUGAAGCUUCGUGCAC
B2: PARIS_ID34 (structured_RNA)
RNA: GGGAAGGCCUACCGAUAGAAGGGCUAGUGGUGUACGAAGUUUCAGCGCUGGUGAUGCCCAACCCAGUGCUCUGCACCCAGGUCACACUGUGGCUUUGUCCUCUGCGCUGAAGCUUCGUGCAC
B3: U1A (structured_RNA)
RNA: GGGACACGAGUUUGCCCGUUUAGGACUAGGUGUACGAAGUUUCAGCAUUGCACUCCGCUGAAGCUUCGUGCAC
B4: hsa-mir-4723 (structured_RNA)
RNA: GGGAAAGCAGGUGUAUAGCCAUACCUCCGGUGUACGAAGUUUCAGCAGAGCACCUCCUAGAGAAUGUUGAACUAAAGGUGCCCGCUGAAGCUUCGUGCAC
B5: hsa-mir-6841 (structured_RNA)
RNA: GGGAAAGGGGUCCCUUAUCGGCUAAUAUGGUGUACGAAGUUUCAGCUUGUGAAACACAGGUGUUUUUUAACCUCACGCUGAAGCUUCGUGCAC
B6: PARIS_ID41 (structured_RNA)
RNA: GGGAAAUUCUAUAGUCACGGCGCGUCCCGGUGUACGAAGUUUCAGCACCUGCUCUGGCUCUUGGCACAUCUGGUUGGUGACACUGUUUUGUGAGAUGGGUGCUGAAGCUUCGUGCAC
B7: hsa-mir-486-1 (structured_RNA)
RNA: GGGACGCACUUUGUUCGGUGGAAUAACAGGUGUACGAAGUUUCAGCCCCGAGGCCCUUCAUGCUGCCCAGCUCGGGGCUGAAGCUUCGUGCAC
B8: hsa-mir-6797 (structured_RNA)
RNA: GGGAACUGUGCACGAGGUAGGUAUUUCAGGUGUACGAAGUUUCAGCAACAGGACCUGUGCUCACUGGGGCCUGCAGCUGAAGCUUCGUGCAC
B9: hsa-mir-633 (structured_RNA)
RNA: GGGAAAAUAUGCUCACGCUAGUACUCCCGGUGUACGAAGUUUCAGCUUAACCUAAAAUGAGAAGGCUAAGCUGAAGCUUCGUGCAC
B10: hsa-mir-450a-1 (structured_RNA)
RNA: GGGAACAGAGCUGCUUUGUUACGUGCAAGGUGUACGAAGUUUCAGCUAAUAUGCACUAUAAAUAUAUUGGCUGAAGCUUCGUGCAC
B11: hsa-mir-6789 (structured_RNA)
RNA: GGGAACUAAGAGGUACGUGCUGUGGGCAGGUGUACGAAGUUUCAGCCGCGGGCGGGUCCCAGGCUGGGCCCCUCGGAGGCCGGGUGCUCACUGCCCCGUCCCGGGCUGAAGCUUCGUGCAC

This is one part of the list.

The target in one test is U1A (Homo sapiens, UniProt P09012). Description: FOREST: bead pull-down of RNA structure library v1, barcode microarray; U1A/LIN28A: 20 mM HEPES pH 7.5, 80 mM KCl, 20 mM NaCl, 10% glycerol, 2 mM DTT, 0.1 ug/uL BSA, 4 C; BG4/CIRBP/DHX36: 10 mM Tris-HCl pH 7.5, 100 mM KCl (or LiCl),; high values mean tight binding.
B1 gave a binding signal of 10 z-score.

As for B2, the binding signal amounted to 1.54 z-score.

In turn, B3 returned a binding signal of 11.6 z-score.

In turn, B4 returned a binding signal of 1.56 z-score.

B5 registered a binding signal of 1.54 z-score.

With B6, the binding signal was found to be 1.56 z-score.

The molecule B7 had a binding signal of 1.53 z-score.

B8: the binding signal turned out to be 1.54 z-score.

As for B9, the binding signal was 2.91 z-score.

For the molecule B10, the binding signal turned out to be 1.54 z-score.

B11 yielded a binding signal of 1.54 z-score.

Another test concerns the target T1, LIN28A. The test is described as above.
B1: the binding signal was -0.951 z-score.

The molecule B2 gave a binding signal of 0.0644 z-score.

As for B3, the binding signal was -0.55 z-score.

For B4, the binding signal was -0.287 z-score.

Consider B5, for which the binding signal came to 1.51 z-score.

In turn, B6 displayed a binding signal of 1.4 z-score.

On to B7, for which the binding signal is 0.00354 z-score.

In the case of B8, the binding signal was found to be 1.09 z-score.

Turning to B9, the binding signal was -0.893 z-score.

In the case of B10, the binding signal is -0.56 z-score.

In the case of B11, the binding signal worked out at 0.518 z-score.

The target in a further test is T2, CIRBP. The description is as above.
Turning to B1, the binding signal is -1.29 z-score.

The molecule B2 gave a binding signal of 0.176 z-score.

B3 displayed a binding signal of -0.873 z-score.

B4 yielded a binding signal of -1.02 z-score.

Molecule B5 had a binding signal of 0.906 z-score.

As for B6, the binding signal turned out to be 0.363 z-score.

The molecule B7 had a binding signal of -0.718 z-score.

B8 displayed a binding signal of 0.791 z-score.

Consider B9, for which the binding signal is -1.01 z-score.

B10 showed a binding signal of -0.433 z-score.

B11 registered a binding signal of -0.953 z-score.

A further test concerns the target T3, DHX36. The description is as above.
B1 had a binding signal of -0.753 z-score.

As to B2, the binding signal was found to be 0.0604 z-score.

B3: the binding signal was -1.39 z-score.

The molecule B4 registered a binding signal of 0.11 z-score.

In the case of B5, the binding signal was determined as 0.308 z-score.

The molecule B6 gave a binding signal of 0.0944 z-score.

As for B7, the binding signal amounted to 0.248 z-score.

B8 came in with a binding signal of 0.372 z-score.

Turning to B9, the binding signal was -0.123 z-score.

The molecule B10 had a binding signal of -1.3 z-score.

Take B11: the binding signal amounted to 0.0115 z-score.
